## Cyclic peptide permeability, from CycPeptMPDB

Data: CycPeptMPDB; original report White et al. 2011, doi:10.1038/nchembio.664.

RRCK values come from monolayers of low-efflux MDCK cells.
Permeability is given as log10 of P in cm/s; higher (less negative) is more permeable.

The entry for CC(C)C[C@@H]1NC(=O)[C@H](CC(C)C)N(C)C(=O)[C@@H](CC(C)C)N(C)C(=O)[C@H](CO)NC(=O)[C@H](Cc2ccc(O)cc2)N(C)C(=O)[C@H]2CCCN2C1=O lists RRCK -5.72 (log10 cm/s).
The entry for CC(C)C[C@@H]1NC(=O)[C@H](Cc2ccc(O)cc2)N(C)C(=O)[C@H]2CCCN2C(=O)[C@H](CO)NC(=O)[C@H](CC(C)C)N(C)C(=O)[C@@H](CC(C)C)N(C)C1=O lists RRCK -6.12 (log10 cm/s).

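Conditions beyond the assay type are not listed; see the original paper. Other peptides of the study may be missing here. Peptides that the database sets to -10, its floor, are left out.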